# Earlier results in patent US11857566B2, “Sulfonated polystyrene derivative for use in the treatment and/or prophylaxis of cat flu” (UNIWERSYTET JAGIELLONSKI, priority 2018, dated 2024).
smiles,measurement,value
NC(=O)c1ncn([C@@H]2O[C@H](CO)[C@@H](O)[C@H]2O)n1 [ribavirin],toxicity after oral administration in cats,too toxic
